Data reported in patent EP2221053A1, “Pharmaceutical composition comprising protein methyltransferase I inhibitors and its use for treating tumour diseases” (Albert-Ludwigs-Universität Freiburg, priority 2009, dated 2010).
Read-outs that look alike come from different tables or passages of the source.

The chains behind the UniProt entries cited, without tags or fusion partners. Residues count along the entry.
UniProt Q99873, whole entry: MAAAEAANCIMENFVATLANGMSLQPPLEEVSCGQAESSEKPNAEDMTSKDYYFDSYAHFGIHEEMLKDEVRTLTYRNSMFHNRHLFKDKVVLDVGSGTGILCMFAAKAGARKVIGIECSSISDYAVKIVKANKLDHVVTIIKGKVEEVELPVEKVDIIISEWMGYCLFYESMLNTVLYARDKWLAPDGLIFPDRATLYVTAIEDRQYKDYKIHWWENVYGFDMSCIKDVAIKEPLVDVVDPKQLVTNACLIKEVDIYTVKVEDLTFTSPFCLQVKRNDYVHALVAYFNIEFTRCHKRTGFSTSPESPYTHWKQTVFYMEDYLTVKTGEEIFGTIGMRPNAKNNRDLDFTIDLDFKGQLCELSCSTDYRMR
UniProt Q5VLE3, 1-345: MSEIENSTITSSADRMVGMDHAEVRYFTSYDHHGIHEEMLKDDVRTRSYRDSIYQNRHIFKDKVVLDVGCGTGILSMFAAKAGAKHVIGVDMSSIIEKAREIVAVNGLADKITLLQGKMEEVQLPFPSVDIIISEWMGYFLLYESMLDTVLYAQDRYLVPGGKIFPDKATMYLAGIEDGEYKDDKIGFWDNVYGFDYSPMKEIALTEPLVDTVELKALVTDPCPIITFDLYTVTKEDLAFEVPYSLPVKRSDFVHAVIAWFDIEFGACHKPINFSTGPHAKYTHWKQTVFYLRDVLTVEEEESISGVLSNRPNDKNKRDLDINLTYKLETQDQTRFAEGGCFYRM
UniProt Q8WTS6, whole entry: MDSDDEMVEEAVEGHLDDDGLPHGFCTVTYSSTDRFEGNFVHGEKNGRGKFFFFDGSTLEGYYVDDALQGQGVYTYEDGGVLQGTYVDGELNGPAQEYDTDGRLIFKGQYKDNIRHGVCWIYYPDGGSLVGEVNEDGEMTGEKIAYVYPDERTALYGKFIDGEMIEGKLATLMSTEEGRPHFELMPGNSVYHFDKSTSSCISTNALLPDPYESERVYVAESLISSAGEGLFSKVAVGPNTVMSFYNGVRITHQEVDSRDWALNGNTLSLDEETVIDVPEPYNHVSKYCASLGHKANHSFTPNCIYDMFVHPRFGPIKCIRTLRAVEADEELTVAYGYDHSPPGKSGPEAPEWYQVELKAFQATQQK

Experiments:
[1] = target: PRMT1 (Homo sapiens, UniProt Q99873); test: In vitro enzyme inhibition assay, immobilised oligopeptide substrate, antibody/Europium time-resolved fluorescence detection; type: biochemical; conditions: read-out: Hemmung PRMT1 (IC50 + SD), IC50 with SD
[2] = tested on: Arg3 im Histon H4; test: Cellular hypomethylation, ELISA-like assay with anti-dimethyl-histone H4(Arg3) antibody; type: cell-based; conditions: HepG2-Zellen; for cytotoxischer Effekt: methylation assay, tested form: HI; for Reduktion der Methylierung an Arg3 Histon H4: 25 µM
[3] = tested on: Lysin-Acetylierung; test: Cellular lysine acetylation, ELISA-like assay with pan-anti-acetyllysine antibody; type: cell-based; conditions: for cytotoxischer Effekt: acetylation assay, tested form: HI; for Effekt auf die Acetylierung an Lysinen: in words
[4] = tested on: Androgenrezeptor (AR); test: Transient transfection luciferase reporter assay, androgen receptor mediated gene activation in LnCap cells; type: cell-based; conditions: LnCap-Zellen; for cytotoxischer Effekt: androgen receptor reporter assay; for Reduzierung der androgenvermittelten Rezeptoraktivierung, verglichen mit den übrigen Substanzen: highest concentration, relative to the other substances; for antiandrogene Potenz: in words
[5] = tested on: Estrogen-Rezeptor α (ER α); test: Transient transfection luciferase reporter assay, estrogen receptor α mediated gene activation in HEK293 cells; type: cell-based; conditions: HEK293-Zellen; for cytotoxischer Effekt: estrogen receptor reporter assay; for inhibitorisches Potential bei der estrogenrezeptorvermittelten Aktivierung: in words
[6] = target: RmtA (Emericella nidulans, UniProt Q5VLE3)
[7] = target: SET7/9 (Homo sapiens, UniProt Q8WTS6); test: In vitro selectivity test against lysine methyltransferase; conditions: in-vitro test system, in words

Row | SMILES | IC50 ([1]; tested form: HI) [µM] | cytotoxischer Effekt [2] | cytotoxischer Effekt [3] | cytotoxischer Effekt ([4]; tested form: HI) | Reduzierung der androgenvermittelten Rezeptoraktivierung, verglichen mit den übrigen Substanzen ([4]; tested form: HI) | antiandrogene Potenz ([4]; tested form: HI) | cytotoxischer Effekt ([5]; tested form: HI) | Hemmung RmtA (%Inh. bei 10 µM) ([6]; tested form: HI) | Reduktion der Methylierung an Arg3 Histon H4 [2] [%] | Effekt auf die Acetylierung an Lysinen [3] | Reduzierung der androgenvermittelten Rezeptoraktivierung, verglichen mit den übrigen Substanzen [4] | antiandrogene Potenz [4] | cytotoxischer Effekt [5] | inhibitorisches Potential bei der estrogenrezeptorvermittelten Aktivierung [5] | Hemmung RmtA (%Inh. bei 10 µM) [6] | IC50 [1] [µM] | inhibitorisches Potential gegenüber SET7/9 [7] | Reduktion der Acetylierung an Lysinen in Core-1-Histonen ([3]; 25 µM) [%]
1 | CNCCCCCc1nc(-c2ccc(Cl)cc2)nc2cc(-c3ccccc3)nn12 | 10.4 | stark cytotoxischen Effekt | stark cytotoxischen Effekt | deutlichen cytotoxischen Effekt | ≥ 2 -fach | Besonders hohe antiandrogene Potenz | deutlichen cytotoxischen Effekt | 43,64% | – | – | – | – | – | – | – | – | – | –
2 | NCCCCCOc1cc(-c2cccnc2)nc(-c2cccnc2)c1 | – | – | – | – | – | – | – | – | > 50 | keinen Effekt | ≥ 2 -fach | Besonders hohe antiandrogene Potenz | ohne jedoch einen cytotoxischen Effekt | das größte inhibitorische Potential | 53,7% | – | – | –
3 | NCCCCCSc1cc(-c2ccc(Cl)cc2)nc2c(-c3ccccc3)cnn12 | – | – | – | – | – | – | – | – | > 50 | indirekte Beeinflussung des Acetylierungslevels | ≥ 2 -fach | Besonders hohe antiandrogene Potenz | ohne jedoch einen cytotoxischen Effekt | das größte inhibitorische Potential | 22,8% | 9.32 | inhibitorisches Potential gegenüber SET7/9 | > 50
4 | CCNCCCCc1nc(-c2ccc(Cl)cc2)nc2c(-c3ccccc3)cnn12 | 4.18 | stark cytotoxischen Effekt | stark cytotoxischen Effekt | deutlichen cytotoxischen Effekt | ≥ 2 -fach | Besonders hohe antiandrogene Potenz | deutlichen cytotoxischen Effekt | 83,4% | – | – | – | – | – | – | – | – | – | –
